Assay: Exposure to 100% relative humidity at room temperature, then powder XRD
Assay type: physicochemical
Settings: open Petri dish, 100+5% RH, 12 days
Description: About 150 mg of Sitagliptin sulfate form S7 were put in an open Petrii dish and kept at 100+5% RH (relative humidity) and room temperature for 12 days. It was then analyzed by powder XRD.
For XRD measurement samples are mixed with small amount of Si powder and applied directly on silicon plate holder. The X-ray powder diffraction pattern was measured with Philips X'Pert PRO X-ray powder diffractometer, equipped with Cu irradiation source=1.54060 Å (Ångström), X'Celerator (2.022° 2Q) detector. Scanning parameters: angle range: 3-40 deg., step size 0.0167, time per step 39 s, continuous scan.

## Sitagliptin sulfate isopropanol solvate [Form S7]
  Polymorphic form found by powder XRD after humidity exposure: transformation of Form S7 to S1
Listed as form S7
  Polymorphic form found by powder XRD after humidity exposure: form S1
